Assay results: patent US8765959B2, “Piperidine derivatives” (Boehringer Ingelheim International GmbH, priority 2011, dated 2014)

Sequences of proteins named here, by UniProt entry; tags and fusion partners are left off. Residues count along the entry.
UniProt O00763, 129-2458 limits assumed: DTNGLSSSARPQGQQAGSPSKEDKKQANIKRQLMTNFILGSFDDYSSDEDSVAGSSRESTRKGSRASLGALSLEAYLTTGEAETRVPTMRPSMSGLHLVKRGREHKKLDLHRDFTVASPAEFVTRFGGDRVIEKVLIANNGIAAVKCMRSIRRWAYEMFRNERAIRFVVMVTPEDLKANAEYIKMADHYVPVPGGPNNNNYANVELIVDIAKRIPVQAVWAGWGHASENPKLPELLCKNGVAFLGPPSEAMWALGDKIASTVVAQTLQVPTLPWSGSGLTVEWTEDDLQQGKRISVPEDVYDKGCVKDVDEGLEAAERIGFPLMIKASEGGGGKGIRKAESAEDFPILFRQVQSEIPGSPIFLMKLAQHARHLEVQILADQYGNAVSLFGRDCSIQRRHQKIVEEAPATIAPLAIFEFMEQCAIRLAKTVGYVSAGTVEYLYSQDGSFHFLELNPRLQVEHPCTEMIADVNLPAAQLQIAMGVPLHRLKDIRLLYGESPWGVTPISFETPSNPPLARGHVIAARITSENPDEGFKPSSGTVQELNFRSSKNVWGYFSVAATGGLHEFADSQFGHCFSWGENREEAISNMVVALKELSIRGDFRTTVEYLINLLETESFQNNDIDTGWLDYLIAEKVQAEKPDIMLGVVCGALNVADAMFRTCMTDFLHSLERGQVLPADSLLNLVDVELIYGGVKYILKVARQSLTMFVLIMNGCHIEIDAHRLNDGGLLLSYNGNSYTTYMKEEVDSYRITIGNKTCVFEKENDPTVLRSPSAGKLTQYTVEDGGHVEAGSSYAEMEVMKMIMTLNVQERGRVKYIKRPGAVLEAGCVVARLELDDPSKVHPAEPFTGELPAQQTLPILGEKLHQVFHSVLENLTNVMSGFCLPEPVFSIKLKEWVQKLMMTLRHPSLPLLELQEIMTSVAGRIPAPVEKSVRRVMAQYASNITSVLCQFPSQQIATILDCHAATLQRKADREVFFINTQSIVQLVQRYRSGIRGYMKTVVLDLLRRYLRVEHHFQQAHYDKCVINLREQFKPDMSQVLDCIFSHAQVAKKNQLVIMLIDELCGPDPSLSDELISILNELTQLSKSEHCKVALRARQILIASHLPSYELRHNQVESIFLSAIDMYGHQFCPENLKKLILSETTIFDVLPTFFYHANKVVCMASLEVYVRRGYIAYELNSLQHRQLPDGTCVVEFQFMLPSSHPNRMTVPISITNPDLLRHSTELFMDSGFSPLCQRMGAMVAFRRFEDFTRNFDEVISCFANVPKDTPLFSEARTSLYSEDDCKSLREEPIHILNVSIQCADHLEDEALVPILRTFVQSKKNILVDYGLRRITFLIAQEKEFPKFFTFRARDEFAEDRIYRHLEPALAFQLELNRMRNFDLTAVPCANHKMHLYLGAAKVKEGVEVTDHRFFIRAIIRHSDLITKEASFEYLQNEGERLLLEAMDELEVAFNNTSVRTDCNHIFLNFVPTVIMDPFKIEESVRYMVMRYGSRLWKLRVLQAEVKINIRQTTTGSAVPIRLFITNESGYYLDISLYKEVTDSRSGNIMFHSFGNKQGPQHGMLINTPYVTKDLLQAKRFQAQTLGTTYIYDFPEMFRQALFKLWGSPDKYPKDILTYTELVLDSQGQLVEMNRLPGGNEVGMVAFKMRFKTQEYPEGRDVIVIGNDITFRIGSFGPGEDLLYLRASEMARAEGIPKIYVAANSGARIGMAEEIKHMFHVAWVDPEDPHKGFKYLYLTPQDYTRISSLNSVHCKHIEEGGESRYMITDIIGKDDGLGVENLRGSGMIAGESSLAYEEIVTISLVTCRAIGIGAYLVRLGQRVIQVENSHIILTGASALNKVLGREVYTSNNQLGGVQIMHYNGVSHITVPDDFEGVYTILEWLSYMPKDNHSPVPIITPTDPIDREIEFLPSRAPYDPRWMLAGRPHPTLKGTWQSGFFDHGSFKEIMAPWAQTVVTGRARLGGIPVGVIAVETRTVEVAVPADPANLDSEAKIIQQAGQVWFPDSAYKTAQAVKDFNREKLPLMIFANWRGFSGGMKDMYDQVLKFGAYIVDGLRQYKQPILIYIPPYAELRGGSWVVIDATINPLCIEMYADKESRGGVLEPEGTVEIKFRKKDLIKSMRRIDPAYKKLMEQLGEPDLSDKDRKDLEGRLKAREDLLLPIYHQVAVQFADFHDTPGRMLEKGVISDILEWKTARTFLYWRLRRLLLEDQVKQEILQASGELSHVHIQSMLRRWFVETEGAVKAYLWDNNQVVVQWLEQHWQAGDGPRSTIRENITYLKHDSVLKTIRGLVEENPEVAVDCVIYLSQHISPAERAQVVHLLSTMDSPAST

Molecular target: human ACC2 (Homo sapiens, UniProt O00763)
Experiment: ACC2 assay, spectrophotometric 384 well assay (NADH-linked, coupled lactate dehydrogenase/pyruvate kinase)
Type: biochemical
Settings: human ACC2 construct lacking 128 N-terminal amino acids, 25° C., 340 nm, 15 minutes
Method: Spectrophotometric 384 Well Assay
Malonyl CoA formation by acetyl CoA carboxylases is stoichometrically linked to the consumption of ATP. ACC2 activity is measured in a NADH-linked kinetic method measuring ADP generated during the ACC reaction using a coupled lactate dehydrogenase/pyruvate kinase reaction.
For biological testing, a human ACC2 construct which lacks the 128 amino acids at the N-terminus for increased solubility (nt 385-6966 in Genbank entry AJ575592) is cloned. The protein is then expressed in insect cells using a baculoviral expression system. Protein purification is performed by anion exchange.
All compounds are dissolved in dimethyl sulfoxide (DMSO) to a concentration of 10 mM.
Assay reactions are then carried out in 384-well plates, with hACC2 in an appropriate dilution and at final assay concentrations (f.c.) of 100 mM Tris (pH 7.5), 10 mM trisodium citrate, 25 mM KHCO3, 10 mM MgCl2, 0.5 mg/ml BSA, 3.75 mM reduced L-glutathione, 15 U/ml lactate dehydrogenase, 0.5 mM phosphoenolpyruvate, 15 U/ml pyruvate kinase, compounds at different concentrations at final DMSO concentrations of 1%.
The enzymatic reaction is then started by addition of a mixture of NADH, acetyl Coenzyme A (both 200 μM f.c.) and ATP (500 uM f.c.). The decrease of the optical density (slope S) is then determined at 25° C. at a wavelength of 340 nm over 15 minutes in a spectrophotometric reader.
Each assay microtiter plate contains wells with vehicle instead of compound as controls for the non-inhibited enzyme (100% CTL; ‘HIGH’) and wells without acetyl-CoA as controls for non-specific NADH degradation (0% CTL; ‘LOW’).
The slope S is used for calculation of % CTL=(S(compound)−S(‘LOW’))/(S(‘HIGH’)−S(‘LOW’))*100. Compounds will give values between 100% CTL (no inhibition) and 0% CTL (complete inhibition).
For IC50 value determination, the sample slope in the presence of the test compound after subtraction of the low controls (S(compound)−S(‘LOW’)) are used.
An IC50 value is derived from the compound slopes at different dosages after subtraction of the low controls (S(compound)−S(‘LOW’)) by non-linear regression curve fitting (equation y=(A+((B−A)/(1+((C/x)^D))))).

IC50 [nM]	SMILES
60	CCCOc1ccc(C2CCN(c3ccc(C(C)NC(C)=O)cc3F)CC2)c(C)c1 (stereo not drawn)
160	CC(=O)NC(C)c1ccc(N2CCC(c3ccc(OC4CCC4)cc3)CC2)cc1F (stereo not drawn)
260	CC(=O)N[C@@H](C)c1ccc(N2CCC(c3ccc(OCC4CC4)cc3)CC2)cc1
130	CC(=O)N[C@@H](C)c1ccc(N2CCC(c3ccc(OCC4CC4)cc3F)CC2)cc1
240	CCCOc1ccc(C2CCN(c3ccc(C(C)NC(C)=O)c(F)c3)CC2)cc1 (stereo not drawn)
170	CC(=O)N[C@@H](C)c1ccc(N2CCC(c3ccc(OC(C)C)cc3)CC2)cc1
